Experimental data taken from patent US20240209053A1 (Protagonist Therapeutics, Inc., priority 2021, published 2024).

Molecular target: T1, human ferroportin (SLC40A1) (Homo sapiens, UniProt Q9NP59)
T1 sequence (Q9NP59 1-571): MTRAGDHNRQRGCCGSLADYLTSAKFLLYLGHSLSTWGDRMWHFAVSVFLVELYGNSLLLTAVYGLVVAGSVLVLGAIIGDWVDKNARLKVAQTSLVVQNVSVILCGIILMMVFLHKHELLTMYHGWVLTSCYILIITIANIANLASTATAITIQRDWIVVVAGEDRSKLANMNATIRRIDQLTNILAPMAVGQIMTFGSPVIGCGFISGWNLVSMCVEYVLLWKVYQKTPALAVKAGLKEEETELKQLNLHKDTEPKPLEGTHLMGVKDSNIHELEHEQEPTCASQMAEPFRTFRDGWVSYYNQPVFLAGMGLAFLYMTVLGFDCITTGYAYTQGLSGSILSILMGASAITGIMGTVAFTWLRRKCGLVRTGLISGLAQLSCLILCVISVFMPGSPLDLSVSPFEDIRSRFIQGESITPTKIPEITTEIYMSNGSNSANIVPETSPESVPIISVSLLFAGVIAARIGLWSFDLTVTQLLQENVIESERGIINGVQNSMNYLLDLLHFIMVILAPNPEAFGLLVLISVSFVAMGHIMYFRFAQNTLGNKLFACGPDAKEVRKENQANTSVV
Experiment: FPN activity assay: internalization/degradation of ferroportin-GFP in stably transfected HEK293 cells (decrease in GFP fluorescence)
Type: cell-based
Conditions: Table 6B, Formula (X) peptides
Method: Peptide analogues were tested in vitro for induction of internalization of the human ferroportin protein. Following internalization, the ferroporin protein is degraded. The assay used (FPN activity assay) measures a decrease in fluorescence of the receptor. The cDNA encoding the human ferroportin (SLC40A1) was cloned from a cDNA clone from Origene (NM_014585). The DNA encoding the ferroportin was amplified by PCR using primers also encoding terminal restriction sites for subcloning, but without the termination codon. The ferroportin receptor was subcloned into a mammalian GFP expression vector containing a neomycin (G418) resistance marker in such that the reading frame of the ferroportin was fused in frame with the GFP protein. The fidelity of the DNA encoding the protein was confirmed by DNA sequencing. HEK293 cells were used for transfection of the ferroportin-GFP receptor expression plasmid. The cells were grown according to standard protocol in growth medium and transfected with the plasmids using Lipofectamine (manufacturer's protocol, Invitrogen). The cells stably expressing ferroportin-GFP were selected using G418 in the growth medium (in that only cells that have taken up and incorporated the cDNA expression plasmid survive) and sorted several times on a Cytomation MoFloTM cell sorter to obtain the GFP-positive cells (488 nm/530 nm). The cells were propagated and frozen in aliquots. […] Compound was added to desired final concentration for at least 18 hours in the incubator. Following incubation, the remaining GFP-fluorescence was determined either by whole cell GFP fluorescence (Envision plate reader, 485/535 filter pair), or by Beckman Coulter QuantaTM cytometer (express as Geometric mean of fluorescence intensity at 485 nm/525 nm). Compound was added to desired final concentration for at least 18 hours but no more than 24 hours in the incubator. […] The “RI” in RI-Mini-Hepcidin refers to Retro Inverse. A retro inverse peptide is a peptide with a reversed sequence in all D amino acids. An example is that […] becomes […]. The EC50 of these reference compounds for ferroportin internalization/degradation was determined according to the FPN activity assay described above. These peptides served as control standards.

Row | SMILES | pIC50
1 | CC[C@H](C)[C@@H]1NC(=O)[C@H](CCCCNC(=O)COCCOCCNC(=O)COCCOCCNC(=O)C[N+](C)(C)CCNC(=O)CCCCCCCCCCCCCCCCC(=O)O)NC(=O)[C@@H]2CCCN2C(=O)[C@H](C(c2ccccc2)c2ccccc2)NC(=O)[C@H](Cc2c[nH]cn2)NC(=O)[C@H]([C@@H](C)O)NC(=O)[C@@H](NC(=O)CC(C)C)CCC/C=C/CCC[C@@H](C(=O)N[C@H](CC(=O)N[C@H](CCCCNC(=O)C[N+](C)(C)C)C(N)=O)Cc2ccccc2)NC1=O [compound 119] | 8.00 to 9.00
2 | CC[C@H](C)[C@@H]1NC(=O)[C@H](CCCCNC(=O)COCCOCCNC(=O)COCCOCCNC(=O)C[N+](C)(C)CCNC(=O)CCCCCCCCCCCCCCCCC(=O)O)NC(=O)[C@@H]2CCCN2C(=O)[C@H](C(c2ccccc2)c2ccccc2)NC(=O)[C@H](Cc2c[nH]cn2)NC(=O)[C@H]([C@@H](C)O)NC(=O)[C@@H](NC(=O)CC(C)C)CCC/C=C/CCC[C@@H](C(=O)N[C@H](CC(=O)N[C@H](CCCNC(=N)N)C(N)=O)Cc2ccccc2)NC1=O [compound 115] | 7.00 to 8.00
3 | CCCCCCCCCCCCCCCC(=O)NCCCCCC(=O)NCCOCCOCC(=O)NCCOCCOCC(=O)NCCCC[C@@H]1NC(=O)[C@@H]2CCCN2C(=O)[C@H](C(c2ccccc2)c2ccccc2)NC(=O)[C@H](Cc2c[nH]cn2)NC(=O)[C@H]([C@@H](C)O)NC(=O)[C@@H](NC(=O)CC(C)C)CCC/C=C/CCC[C@@H](C(=O)N[C@H](CC(=O)N[C@H](CCCNC(=N)N)C(N)=O)Cc2ccccc2)NC(=O)[C@H]([C@@H](C)CC)NC1=O [compound 116] | 7.00 to 8.00
4 | CC[C@H](C)[C@@H]1NC(=O)[C@H](CCCCNC(=O)COCCOCCNC(=O)COCCOCCNC(=O)C[N+](C)(C)CCNC(=O)CCCCCCCCCCCCCCCCC(=O)O)NC(=O)[C@@H]2CCCN2C(=O)[C@H](C(c2ccccc2)c2ccccc2)NC(=O)[C@H](Cc2c[nH]cn2)NC(=O)[C@H]([C@@H](C)O)NC(=O)[C@@H](NC(=O)CC(C)C)CCC/C=C/CCC[C@@H](C(=O)N[C@H](CC(=O)N[C@H](CCCCN)C(N)=O)Cc2ccccc2)NC1=O [compound 120] | 7.00 to 8.00
5 | CCCCCCCCCCCCCCCC(=O)NCCCCCC(=O)NCCCC[C@@H]1NC(=O)[C@@H]2CCCN2C(=O)[C@H](C(c2ccccc2)c2ccccc2)NC(=O)[C@H](Cc2c[nH]cn2)NC(=O)[C@H]([C@@H](C)O)NC(=O)[C@@H](NC(=O)CC(C)C)CCC/C=C/CCC[C@@H](C(=O)N[C@H](CC(=O)N[C@H](CCCNC(=N)N)C(N)=O)Cc2ccccc2)NC(=O)[C@H]([C@@H](C)CC)NC1=O [compound 118] | 8.00 to 9.00
6 | CCCCCCCCCCCCCCCC(=O)NCCCCCC(=O)NCCCC[C@@H]1NC(=O)[C@@H]2CCCN2C(=O)[C@H](C(c2ccccc2)c2ccccc2)NC(=O)[C@H](Cc2c[nH]cn2)NC(=O)[C@H]([C@@H](C)O)NC(=O)[C@@H](NC(=O)CC(C)C)CCC/C=C/CCC[C@@H](C(=O)N[C@H](CC(=O)N[C@H](CCCNC(=N)N)C(N)=O)Cc2ccccc2)NC(=O)[C@H](CCCNC(=N)N)NC1=O [compound 117] | 7.00 to 8.00

Same assay, conditions: Table 6C, Formula (XI) peptides

Row | SMILES | pIC50
7 | CCCCCCCCCCCCCCCC(=O)NCCCCCC(=O)NCCCC[C@H](NC(=O)C[C@H](Cc1ccccc1)NC(=O)[C@@H]1CC/C=C/CC[C@H](NC(=O)CC(C)C)C(=O)N[C@@H]([C@@H](C)O)C(=O)N[C@@H](Cc2c[nH]cn2)C(=O)N[C@@H](C(c2ccccc2)c2ccccc2)C(=O)N2CCC[C@H]2C(=O)NCC[N+](C)(C)CC(=O)N1)C(N)=O [compound 127] | 6.30 to 7.00

Molecular target: T2, ferroportin (Homo sapiens, UniProt Q9NP59)
T2 sequence (Q9NP59 1-571): T1 sequence (Q9NP59 1-571)
Experiment: T47D cell-based ferroportin internalization assay in presence of 0.5% mouse serum albumin (MSA)
Conditions: Table 6B, T47D cells
Method: The potency of the peptides in causing ferroportin internalization was evaluated in a T47D cell-based assay. […] In this internalization assay, the potency of the test peptides was evaluated in presence of serum albumin which is the main protein component in the blood. T47D cells were maintained in RPMI media (containing required amount of fetal bovine serum) and regularly sub-cultured. In preparation for the assay, the cells were seeded in 96-well plates at a density of 80-100 k cells per well in 100 ul volume and allowed to rest overnight. On the next day, test peptides were first prepared in dilution series (10-point series, starting concentration of ˜5 μM, typically 3-4×fold dilution steps), all with 0.5% mouse serum albumin (MSA purified from mouse serum; Sigma, A3139). The test peptide dilution series were allowed to incubate at room temperature for 30 min. Then the media was aspirated from the 96-well cell plate and test peptide dilution series were added. After 1 hr incubation, the media with test peptides was aspirated out and AF647-conjugated detection peptide was added at fixed concentration of 200 nM. The AF647-conjugated detection peptide was previously verified to bind to ferroportin and cause its internalization. The cells were washed again after a 2 hr incubation in preparation for flow cytometry analysis. The Median Fluorescence Intensity (MFI) of the AF647-positive population was measured (after removing dead cells and non-singlets from the analysis). The MFI values were used to generate a dose-response curve and obtain IC50 potencies for the test peptides. The IC50 potencies were calculated by using 4-parameter non-linear fitting function in Graphpad Prism (Table 6A).

Row | SMILES | pIC50
8 | CC(C)CC(=O)N[C@H]1CCC/C=C/CCC[C@@H](C(=O)N[C@H](CC(=O)N[C@@H](CCCCNC(=O)COCCOCCNC(=O)COCCOCCNC(=O)C[N+](C)(C)CCNC(=O)CCCCCCCCCCCCCCCCC(=O)O)C(=O)N[C@H](CCCNC(=N)N)C(N)=O)Cc2ccccc2)NC(=O)[C@H](CC(C)(C)C)NC(=O)CN(C)C(=O)[C@@H]2CCCN2C(=O)[C@H](C(c2ccccc2)c2ccccc2)NC(=O)[C@H](Cc2c[nH]cn2)NC(=O)[C@H]([C@@H](C)O)NC1=O [compound 100] | 7.00 to 8.00
9 | CC[C@H](C)[C@@H]1NC(=O)[C@H](CCCCNC(=O)COCCOCCNC(=O)COCCOCCNC(=O)C[N+](C)(C)CCNC(=O)CCCCCCCCCCCCCCCCC(=O)O)NC(=O)[C@@H]2CCCN2C(=O)[C@H](C(c2ccccc2)c2ccccc2)NC(=O)[C@H](Cc2c[nH]cn2)NC(=O)[C@H]([C@@H](C)O)NC(=O)[C@@H](NC(=O)CC(C)C)CCC/C=C/CCC[C@@H](C(=O)N[C@H](CC(=O)N[C@H](CCCCN)C(N)=O)Cc2ccccc2)NC1=O [compound 120] | 7.00 to 8.00
10 | CC[C@H](C)[C@@H]1NC(=O)[C@H](C)NC(=O)[C@@H]2CCCN2C(=O)[C@H](C(c2ccccc2)c2ccccc2)NC(=O)[C@H](Cc2c[nH]cn2)NC(=O)[C@H]([C@@H](C)O)NC(=O)[C@@H](NC(=O)CC(C)C)CCC/C=C/CCC[C@@H](C(=O)N[C@H](CC(=O)N[C@@H](CCCCNC(=O)COCCOCCNC(=O)COCCOCCNC(=O)CC[C@H](NC(=O)CCCCCCCCCCCCCCCCC(=O)O)C(=O)O)C(=O)N[C@H](CCCNC(=N)N)C(N)=O)Cc2ccccc2)NC1=O [compound 112] | 7.00 to 8.00
11 | CCCCCCCCCCCCCCCC(=O)N[C@@H](CCC(=O)NCCOCCOCC(=O)NCCOCCOCC(=O)NCCCC[C@@H]1NC(=O)[C@@H]2CCCN2C(=O)[C@H](C(c2ccccc2)c2ccccc2)NC(=O)[C@H](Cc2c[nH]cn2)NC(=O)[C@H]([C@@H](C)O)NC(=O)[C@@H](NC(=O)CC(C)C)CCC/C=C/CCC[C@@H](C(=O)N[C@H](CC(=O)N[C@H](CCCNC(=N)N)C(N)=O)Cc2ccccc2)NC(=O)[C@H](CC(C)(C)C)NC1=O)C(=O)O [compound 107] | 8.00 to 9.00
12 | CC[C@H](C)[C@@H]1NC(=O)[C@H](C)NC(=O)[C@@H]2CCCN2C(=O)[C@H](C(c2ccccc2)c2ccccc2)NC(=O)[C@H](Cc2c[nH]cn2)NC(=O)[C@H]([C@@H](C)O)NC(=O)[C@@H](NC(=O)CC(C)C)CCC/C=C/CCC[C@@H](C(=O)N[C@H](CC(=O)N[C@@H](CCCCNC(=O)COCCOCCNC(=O)COCCOCCNC(=O)CCCCCNC(=O)CCCCCCCCCCCCCCCCC(=O)O)C(=O)N[C@H](CCCNC(=N)N)C(N)=O)Cc2ccccc2)NC1=O [compound 113] | 7.00 to 8.00
13 | CC(C)CC(=O)N[C@H]1CCC/C=C/CCC[C@@H](C(=O)N[C@H](CC(=O)N[C@H](CCCNC(=N)N)C(N)=O)Cc2ccccc2)NC(=O)[C@H](CC(C)(C)C)NC(=O)[C@H](CCCCNC(=O)COCCOCCNC(=O)COCCOCCNC(=O)CCCCCNC(=O)CCCCCCCCCCCCCCCCC(=O)O)NC(=O)[C@@H]2CCCN2C(=O)[C@H](C(c2ccccc2)c2ccccc2)NC(=O)[C@H](Cc2c[nH]cn2)NC(=O)[C@H]([C@@H](C)O)NC1=O [compound 109] | 7.00 to 8.00
14 | CC(C)CC(=O)N[C@H]1CCC/C=C/CCC[C@@H](C(=O)N[C@H](CC(=O)N[C@H](CCCNC(=N)N)C(N)=O)Cc2ccccc2)NC(=O)[C@H](CC(C)(C)C)NC(=O)[C@H](CCCCNC(=O)COCCOCCNC(=O)COCCOCCNC(=O)CC[C@H](NC(=O)CCCCCCCCCCCCCCCCC(=O)O)C(=O)O)NC(=O)[C@@H]2CCCN2C(=O)[C@H](C(c2ccccc2)c2ccccc2)NC(=O)[C@H](Cc2c[nH]cn2)NC(=O)[C@H]([C@@H](C)O)NC1=O [compound 108] | 7.00 to 8.00
15 | CCCCCCCCCCCCCCCC(=O)NCCCCCC(=O)NCCCC[C@@H]1NC(=O)[C@@H]2CCCN2C(=O)[C@H](C(c2ccccc2)c2ccccc2)NC(=O)[C@H](Cc2c[nH]cn2)NC(=O)[C@H]([C@@H](C)O)NC(=O)[C@@H](NC(=O)CC(C)C)CCCC=CCCC[C@@H](C(=O)N[C@H](CC(=O)N[C@H](CCCNC(=N)N)C(N)=O)Cc2ccccc2)NC(=O)[C@H](CC(C)(C)C)NC1=O [compound 110] | 8.00 to 9.00

pIC50: −log10 of the molar value.
